Among the data in BindingDB's records for doi:10.1002/pro.5560071201 (University of Pennsylvania, 1998) are Kd values, retold here.

The target in the assay is Carbonic anhydrase 2 (Homo sapiens, UniProt P00918). Briefly: In Vitro Binding for Human Carbonic Anhydrase II. To be noted: pH 7.4; 37 °C.

The structures appear in SMILES notation.

What is called Kd is the constant that tells how readily two partners part at equilibrium.

`COc1cccc(N2CCc3cc(S(N)(=O)=O)sc3S2(=O)=O)c1` [2-(3-methoxyphenyl)-1,1-dioxo-2H,3H,4H-1,7,2-thieno[3,2-e][1,2]thiazine-6-sulfonamide] registered a Kd of 0.1 nM. With `COc1ccc(N2C[C@H](O)c3cc(S(N)(=O)=O)sc3S2(=O)=O)cc1` [4-hydroxy-2-(4-methoxyphenyl)-1,1-dioxo-2H,3H,4H-1,7,2-thieno[3,2-e][1,2]thiazine-6-sulfonamide], the affinity, expressed as Kd, was 0.16 nM.
